Results on two compounds are retold here after patent US7592344B2, “NK1 and NK2-antagonists and compositions and methods of using the same” (Solvay Pharmaceuticals GmbH, priority 2005, dated 2009).

Amino acid sequences for entries named in this document (tags omitted).
UniProt P25103, whole entry: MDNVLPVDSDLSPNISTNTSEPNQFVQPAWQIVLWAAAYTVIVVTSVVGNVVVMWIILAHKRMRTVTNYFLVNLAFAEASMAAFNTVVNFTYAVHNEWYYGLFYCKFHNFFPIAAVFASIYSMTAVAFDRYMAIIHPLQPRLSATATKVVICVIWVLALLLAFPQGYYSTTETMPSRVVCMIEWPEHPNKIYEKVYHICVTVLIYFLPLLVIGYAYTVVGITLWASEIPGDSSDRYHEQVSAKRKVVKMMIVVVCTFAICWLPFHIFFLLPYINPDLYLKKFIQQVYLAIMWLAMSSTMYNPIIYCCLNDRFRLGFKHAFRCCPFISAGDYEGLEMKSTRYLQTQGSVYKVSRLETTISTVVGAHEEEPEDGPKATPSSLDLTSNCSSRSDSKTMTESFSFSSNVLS
UniProt P21452, whole entry: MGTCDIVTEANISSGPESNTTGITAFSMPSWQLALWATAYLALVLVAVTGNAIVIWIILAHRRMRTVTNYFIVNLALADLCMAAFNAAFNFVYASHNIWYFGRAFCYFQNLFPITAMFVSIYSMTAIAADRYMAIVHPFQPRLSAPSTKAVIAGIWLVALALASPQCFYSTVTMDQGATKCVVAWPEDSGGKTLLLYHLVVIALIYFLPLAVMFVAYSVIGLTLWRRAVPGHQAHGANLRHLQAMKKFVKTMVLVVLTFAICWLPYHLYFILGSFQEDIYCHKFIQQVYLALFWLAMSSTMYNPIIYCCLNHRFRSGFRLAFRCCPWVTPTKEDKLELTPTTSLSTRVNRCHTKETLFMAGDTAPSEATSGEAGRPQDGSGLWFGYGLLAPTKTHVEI
UniProt P30547, whole entry: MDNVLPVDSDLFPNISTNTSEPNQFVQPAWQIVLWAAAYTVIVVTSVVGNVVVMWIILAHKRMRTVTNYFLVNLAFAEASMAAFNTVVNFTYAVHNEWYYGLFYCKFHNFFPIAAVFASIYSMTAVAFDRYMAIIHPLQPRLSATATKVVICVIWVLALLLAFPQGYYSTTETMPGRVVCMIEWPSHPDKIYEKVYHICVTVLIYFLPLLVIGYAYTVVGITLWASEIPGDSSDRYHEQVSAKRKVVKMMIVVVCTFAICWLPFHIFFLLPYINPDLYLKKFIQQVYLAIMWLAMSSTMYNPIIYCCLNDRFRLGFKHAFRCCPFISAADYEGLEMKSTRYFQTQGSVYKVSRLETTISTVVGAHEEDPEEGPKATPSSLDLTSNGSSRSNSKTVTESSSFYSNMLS
UniProt Q64077, whole entry: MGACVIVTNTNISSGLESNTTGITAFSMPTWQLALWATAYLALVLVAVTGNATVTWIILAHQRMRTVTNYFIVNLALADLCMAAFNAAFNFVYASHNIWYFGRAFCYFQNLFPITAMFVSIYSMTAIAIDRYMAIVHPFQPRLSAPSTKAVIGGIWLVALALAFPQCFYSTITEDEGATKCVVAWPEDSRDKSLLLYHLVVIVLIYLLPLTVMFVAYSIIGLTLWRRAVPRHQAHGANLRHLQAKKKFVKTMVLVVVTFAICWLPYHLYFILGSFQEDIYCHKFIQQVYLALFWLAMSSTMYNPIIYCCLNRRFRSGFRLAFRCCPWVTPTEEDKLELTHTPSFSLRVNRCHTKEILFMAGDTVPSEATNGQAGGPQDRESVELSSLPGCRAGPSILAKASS

The term pEC50 denotes the EC50 on a negative log10 scale, so that one unit is a factor of ten. Low readings indicate a large EC50, high ones a small EC50. The pIC50 is −log10 of the IC50, conventionally taken in molar units. A high value points to a low IC50.

A value given as a limit tells only on which side of the number the result lay.

The target of one test is human NK1 receptor (Homo sapiens, UniProt P25103). Kind of test: Binding power to NK1 receptors in vitro ([3H]-Substance P displacement, CHO cell membranes). To be noted: human NK1 receptor in CHO membranes, ligand [3H]-Substance P.
Another test concerns the target human NK2 receptor (Homo sapiens, UniProt P21452). Kind of test: Binding power to NK2 receptors in vitro ([3H]-SR 48968 displacement, CHO cell membranes). Conditions: human NK2 receptor in CHO membranes, ligand [3H]-SR 48968, 90 min incubation.
Test [1] concerns the target T1, NK1 receptors (Cavia porcellus, UniProt P30547). Kind of test: Functional NK1 antagonism on isolated guinea pig aorta rings (inhibition of Substance P-induced relaxation). To be noted: phenylephrine tone, 0.01 μmol Substance P.
The target of test [2] is T2, NK2 receptors (Cavia porcellus, UniProt Q64077). Kind of test: Functional NK2 antagonism on isolated guinea pig gall-bladder (inhibition of NKA-induced contraction). To be noted: NKA 0.1 μmol/l, two hours' incubation, IC50 in mol/l.
Test [3] addresses T1, NK1 receptors. Kind of test: NK1-receptor-antagonistic effectiveness in vivo in anesthetized guinea pigs (NKA-induced early hypotension). Conditions: guinea pig.
In test [4] the target is T2, NK2 receptors. Kind of test: NK2-receptor-antagonistic effectiveness in vivo in anesthetized guinea pigs (NKA-induced late hypotension, bronchoconstriction, colonic motility). To be noted: guinea pig.
The mark [5] stands for this setting: i.v., NKA stimulus 1 min after dosing.
The mark [6] stands for this setting: oral, AUC 1-180 min after administration.

With `CN(C[C@@H](CCN1CCN([C@@H](c2ccco2)[C@H](O)C(O)[C@H](O)CO)CC1)c1ccc(Cl)c(Cl)c1)C(=O)c1cc(C#N)cc2ccccc12` (single isomer, unassigned) [3], the “pKi (NK1)” value on human NK1 receptor was 8.8. In addition, the “pKi (NK2)” value on human NK2 receptor was determined as 7.2.
Consider `CN(C[C@@H](CCN1CCN([C@@H](c2ccco2)[C@H](O)C(O)[C@H](O)CO)CC1)c1ccc(Cl)c(Cl)c1)C(=O)c1cc(C#N)cc2ccccc12` (single isomer, unassigned) [2], for which, on human NK1 receptor, the “pKi (NK1)” value turned out to be 8.5. Besides, the “pKi (NK2)” value on human NK2 receptor worked out at 7.1. At NK1 receptors [1], the negative-log EC50 (pEC50) was determined as 9.5. The compound also showed a negative-log IC50 (pIC50) against NK2 receptors [2] of 7.7. Besides, the “ED50 iv after 1 min (cumulative), NK1 (early hypotension)” value at NK1 receptors [3] (setting [5]) was below 0.010 µmol/kg. The “oral activity as NK1 receptor antagonist (in words)” value at NK1 receptors [3] (oral) is on record as “active orally”. The “ED50 AUC1–180 min oral, NK1 (early hypotension)” value on NK1 receptors [3] (setting [6]) was 15.2 µmol/kg. Besides, on NK2 receptors [4] (setting [5]), the “ED50 iv after 1 min (cumulative), NK2 (bronchoconstriction)” value is below 0.010 µmol/kg; the “ED50 iv after 1 min (cumulative), NK2 (colonic motility)” value is 0.085 µmol/kg; the “ED50 iv after 1 min (cumulative), NK2 (late hypotension)” value came out at 0.106 µmol/kg. Moreover, on NK2 receptors [4] (oral), the “oral activity as NK2 receptor antagonist (in words)” value is on record as “active orally”. Further, at NK2 receptors [4] (setting [6]), the “ED50 AUC1–180 min oral, NK2 (bronchoconstriction)” value is 11.7 µmol/kg; the “ED50 AUC1–180 min oral, NK2 (colonic motility)” value worked out at 6.0 µmol/kg; the “ED50 AUC1–180 min oral, NK2 (late hypotension)” value was determined as 14.8 µmol/kg.
